Data from patent US20080090756A1, “Somatostatin agonists” (The Administrators of the Tulane Educational Fund, priority 2001, published 2008).

Sequences of proteins named here, by UniProt entry; tags and fusion partners are left off. A change or cut given only in a name is not applied to a line headed by its entry.
UniProt P35346: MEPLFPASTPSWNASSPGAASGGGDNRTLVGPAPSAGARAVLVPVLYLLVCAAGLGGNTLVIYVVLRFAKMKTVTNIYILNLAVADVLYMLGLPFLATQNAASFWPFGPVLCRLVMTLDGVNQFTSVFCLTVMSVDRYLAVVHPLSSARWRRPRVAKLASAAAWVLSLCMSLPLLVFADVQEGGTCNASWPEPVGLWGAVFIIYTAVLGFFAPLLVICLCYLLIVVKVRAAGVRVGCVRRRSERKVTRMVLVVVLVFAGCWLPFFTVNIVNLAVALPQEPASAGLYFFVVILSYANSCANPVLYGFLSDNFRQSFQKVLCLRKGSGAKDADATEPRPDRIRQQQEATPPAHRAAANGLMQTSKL
UniProt P32745: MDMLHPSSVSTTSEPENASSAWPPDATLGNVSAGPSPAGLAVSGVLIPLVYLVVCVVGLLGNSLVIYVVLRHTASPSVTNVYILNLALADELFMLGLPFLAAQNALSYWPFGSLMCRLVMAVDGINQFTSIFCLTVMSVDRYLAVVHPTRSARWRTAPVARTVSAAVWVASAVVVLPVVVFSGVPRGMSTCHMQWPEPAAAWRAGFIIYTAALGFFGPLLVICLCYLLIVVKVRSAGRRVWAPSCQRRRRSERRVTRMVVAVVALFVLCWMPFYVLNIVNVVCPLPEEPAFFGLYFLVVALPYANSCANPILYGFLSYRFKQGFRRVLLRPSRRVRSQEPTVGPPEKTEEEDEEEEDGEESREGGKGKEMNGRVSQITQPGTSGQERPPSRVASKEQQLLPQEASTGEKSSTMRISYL
UniProt P30872: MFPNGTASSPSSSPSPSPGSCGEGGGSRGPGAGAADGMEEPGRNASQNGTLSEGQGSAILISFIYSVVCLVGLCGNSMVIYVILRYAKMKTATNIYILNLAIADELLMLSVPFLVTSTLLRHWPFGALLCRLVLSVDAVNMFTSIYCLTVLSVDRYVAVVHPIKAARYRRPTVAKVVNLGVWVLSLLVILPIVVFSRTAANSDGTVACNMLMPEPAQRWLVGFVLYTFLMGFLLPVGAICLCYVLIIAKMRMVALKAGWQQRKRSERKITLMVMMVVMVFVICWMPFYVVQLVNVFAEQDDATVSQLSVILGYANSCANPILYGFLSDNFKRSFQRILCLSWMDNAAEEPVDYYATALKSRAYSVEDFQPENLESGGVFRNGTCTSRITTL
UniProt P30874: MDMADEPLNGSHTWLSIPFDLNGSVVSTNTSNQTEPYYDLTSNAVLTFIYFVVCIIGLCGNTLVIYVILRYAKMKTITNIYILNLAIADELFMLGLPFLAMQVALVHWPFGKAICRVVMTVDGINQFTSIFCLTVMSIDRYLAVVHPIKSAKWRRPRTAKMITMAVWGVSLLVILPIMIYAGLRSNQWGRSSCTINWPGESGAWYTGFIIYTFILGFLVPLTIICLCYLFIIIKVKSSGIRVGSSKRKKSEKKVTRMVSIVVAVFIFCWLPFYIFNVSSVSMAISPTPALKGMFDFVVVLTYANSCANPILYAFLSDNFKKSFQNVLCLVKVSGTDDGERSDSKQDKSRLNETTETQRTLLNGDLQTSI

Tests used:
hSSTR-5 = molecular target: T1, hSSTR-5 (Homo sapiens, UniProt P35346); test: Radioligand binding assay, cloned human somatostatin receptor type 5; conditions: CHO-K1 cell membranes, displacement of [125I]Tyr11-SRIF; mean ± SEM, single values = one experiment; read-out: Kd ± SEM hsst5
T1 construct: each containing the entire coding region of the full-length receptors; expressed in transfected cells
Text: (§1) Functional Expression of the Cloned Human Somatostatin Receptors. The genomic clones containing the human somatostatin receptors (hSSTR-1 to hSSTR-5) (Yamada, Y., et al. al., Proc. Natl. Acad. Sci. USA. 1992, 89, 251-255; Yasuda, K., et al., J. Biol. Chem. 1992, 267, 20422-20428; Yamada, Y., et al., Mol. Pharmacol. 1992, 42, 2136-2142; Rohrer, L., et al., Proc. Natl. Acad. Sci. USA. 1993, 90, 4196-4200.) were kindly provided by Dr. Graeme I. Bell of the University of Chicago. The hSSTR-1, hSSTR-2, hSSTR-3, hSSTR-4 and hSSTR-5 cDNAs were isolated as a 1.5-kb PstI-XmnI fragment, 1.7-kb BamHI-HindIII fragment, 2.0-kb NcoI-HindIII fragment, 1.4-kb NheI-NdeI fragment, and a 1.2-kb HindIII-XbaI fragment, respectively, each containing the entire coding region of the full-length receptors. These fragments were independently subcloned into the corresponding restriction endonuclease sites in the mammalian expression vector pCMV5, downstream from the human cytomegalovirus (CMV) promoter, to produce the expression plasmids pCMV5/hSSTR-1, pCMV5/hSSTR-2, pCMV5/hSSTR-3, pCMV5/hSSTR-4 and pCMV5/hSSTR-5. For transfection into CHO-K1 cells, a plasmid, pRSV-neo (American Type Culture Collection, Rockville, Md.), carrying the neomycin mammalian cell selectable marker was added.
Receptor Expression and Transfection. Transfections were performed by the calcium phosphate method. […] Membranes were prepared from the isolated clones and hSSTR expression was initially assessed for binding with [^125I]Tyr^11-SRIF and [^125I]MK-678 (for SSTR-2). […]
(§2) Specific binding is defined as the total radioligand bound minus that bound in the presence of 1.0 μM SRIF. […] The binding affinities are expressed as Ki values ±SEM (nM) for each of the five receptor subtypes. […]
(§3) The binding affinities (Kd, nM) of all SRIF analogues were determined using their concentration-dependent displacement of ^125I-radiolabeled peptide ligands from membranes isolated from CHO cells transfected with the corresponding human somatostatin receptor.

hSSTR-3 = molecular target: T2, hSSTR-3 (Homo sapiens, UniProt P32745); test: Radioligand binding assay, cloned human somatostatin receptor type 3; conditions: CHO-K1 cell membranes, displacement of [125I]Tyr11-SRIF; mean ± SEM, single values = one experiment; read-out: Kd ± SEM hsst3
T2 construct: each containing the entire coding region of the full-length receptors; expressed in transfected cells
Text: as §1
Receptor Expression and Transfection. Transfections were performed by the calcium phosphate method. CHO-K1 cells were maintained in α-minimum essential medium (α-MEM; Gibco) supplemented with 10% fetal calf serum and transfected with each of the expression plasmids using calcium phosphate precipitation. Clones that had inherited the expression plasmid were selected in α-MEM supplemented with 500 μg mL^−1 of geneticin (G418; Gibco). Independent CHO-K1 clones were picked by glass-ring cloning and expanded in culture in the selective media. Membranes were prepared from the isolated clones and hSSTR expression was initially assessed for binding with [^125I]Tyr^11-SRIF and [^125I]MK-678 (for SSTR-2).
Radioligand Binding Assays. Cell membranes of the 5 cells types were obtained from homogenates (Polytron setting 6, 15 sec) of the corresponding CHO-K1 cells, in ice-cold Tris-HCl (50 mM) and centrifuged (39000 g, 10 min×2), with an intermediate resuspension in fresh buffer. The final pellets were resuspended in Tris-HCl (10 mM) for assay. Aliquots of the membranes were incubated (30 min at 37° C.) with 0.05 nM [^125I]Tyr^11-SRIF (types 1, 3, 4, 5) or [^125I]MK-678 (type 2) in […] (pH 7.4) containing BSA (10 mg mL^−1); MgCl2 (5 mM), Trasylol (200 kIU mL^−1), bacitracin (0.02 mg mL^−1), and phenylmethanesulfonyl fluoride (0.02 mg mL^−1). The final assay volume was 0.3 mL and incubations were terminated by rapid filtration through GF/C filters pre-soaked in 0.3% poly(ethylenimine) using a Brandel rapid filtration module. Each tube and filter was then washed with aliquots of cold buffer (3×5 mL).
as §2, §3

hSSTR-1 = molecular target: T3, hSSTR-1 (Homo sapiens, UniProt P30872); test: Radioligand binding assay, cloned human somatostatin receptor type 1; conditions: CHO-K1 cell membranes, displacement of [125I]Tyr11-SRIF; mean ± SEM, single values = one experiment; read-out: Kd ± SEM hsst1
T3 construct: each containing the entire coding region of the full-length receptors; expressed in transfected cells
Text: (§4) Functional Expression of the Cloned Human Somatostatin Receptors. The genomic clones containing the human somatostatin receptors (hSSTR-1 to hSSTR-5) (Yamada, Y., et al. al., Proc. Natl. Acad. Sci. USA. 1992, 89, 251-255; Yasuda, K., et al., J. Biol. Chem. 1992, 267, 20422-20428; Yamada, Y., et al., Mol. Pharmacol. 1992, 42, 2136-2142; Rohrer, L., et al., Proc. Natl. Acad. Sci. USA. 1993, 90, 4196-4200.) were kindly provided by Dr. Graeme I. Bell of the University of Chicago. […]
(§5) Receptor Expression and Transfection. […] Membranes were prepared from the isolated clones and hSSTR expression was initially assessed for binding with [^125I]Tyr^11-SRIF and [^125I]MK-678 (for SSTR-2). […]
as §2, §3

hSSTR-2 = molecular target: T4, hSSTR-2 (Homo sapiens, UniProt P30874); test: Radioligand binding assay, cloned human somatostatin receptor type 2; conditions: CHO-K1 cell membranes, displacement of [125I]MK-678; mean ± SEM, single values = one experiment; read-out: Kd ± SEM hsst2
T4 construct: each containing the entire coding region of the full-length receptors; expressed in transfected cells
Text: as §4, §5, §2, §3

SMILES	Kd (hSSTR-5) [nM]	Kd (hSSTR-3) [nM]	also measured
C[C@@H](O)[C@H](NC(=O)[C@@H]1CSSC[C@H](NC(=O)[C@@H](N)Cc2ccc(O)cc2)C(=O)N[C@@H](Cc2ccccc2)C(=O)N[C@H](Cc2c[nH]c3ccccc23)C(=O)N[C@@H](CCCCN)C(=O)N[C@@H]([C@@H](C)O)C(=O)N1C)C(N)=O [Example 16, Tyr-cyclo(Cys-Phe-DTrp-Lys-Thr-NMeCys)-Thr-NH2]	16.9	17 ± 2.75	–
C[C@@H](O)[C@H](NC(=O)[C@@H]1CSSC[C@H](NC(=O)[C@H](N)Cc2ccccc2)C(=O)N[C@@H](Cc2ccccc2)C(=O)N[C@H](Cc2c[nH]c3ccccc23)C(=O)N[C@@H](CCCCN)C(=O)N[C@@H]([C@@H](C)O)C(=O)N1C)C(N)=O [Example 7, DPhe-cyclo(Cys-Phe-DTrp-Lys-Thr-NMeCys)-Thr-NH2]	–	44.4 ± 8.36	–
CN[C@@H](Cc1ccc(O)cc1)C(=O)N[C@H]1CSSC[C@@H](C(=O)N[C@H](C(N)=O)[C@@H](C)O)NC(=O)[C@H]([C@@H](C)O)NC(=O)[C@H](CCCCN)NC(=O)[C@@H](Cc2c[nH]c3ccccc23)NC(=O)[C@H](Cc2ccccc2)NC1=O [Example 10, NMeTyr-cyclo(Cys-Phe-DTrp-Lys-Thr-Cys)-Thr-NH2]	–	3.01 ± 1.05	–
C[C@@H](O)[C@H](NC(=O)[C@@H]1CSSC[C@H](N(C)C(=O)[C@@H](N)Cc2ccc(O)cc2)C(=O)N[C@@H](Cc2ccccc2)C(=O)N[C@H](Cc2c[nH]c3ccccc23)C(=O)N[C@@H](CCCCN)C(=O)N[C@@H]([C@@H](C)O)C(=O)N1)C(N)=O [Example 11, Tyr-cyclo(NMeCys-Phe-DTrp-Lys-Thr-Cys)-Thr-NH2]	–	–	Kd (hSSTR-1): 862 ± 162 nM
C[C@@H](O)[C@H](NC(=O)[C@@H]1CSSC[C@H](NC(=O)[C@H](N)Cc2ccccc2)C(=O)N(C)[C@@H](Cc2ccccc2)C(=O)N[C@H](Cc2c[nH]c3ccccc23)C(=O)N[C@@H](CCCCN)C(=O)N[C@@H]([C@@H](C)O)C(=O)N1)C(N)=O [Example 3, DPhe-cyclo(Cys-NMePhe-DTrp-Lys-Thr-Cys)-Thr-NH2]	83.2 ± 25.8	–	–
C[C@@H](O)[C@H](NC(=O)[C@@H]1CSSC[C@H](NC(=O)[C@H](N)Cc2ccccc2)C(=O)N[C@@H](Cc2ccccc2)C(=O)N[C@H](Cc2c[nH]c3ccccc23)C(=O)N(C)[C@@H](CCCCN)C(=O)N[C@@H]([C@@H](C)O)C(=O)N1)C(N)=O [Example 5, DPhe-cyclo(Cys-Phe-DTrp-NMeLys-Thr-Cys)-Thr-NH2]	8.41 ± 6.85	67.5 ± 10	Kd (hSSTR-1): 867 ± 102 nM
C[C@@H](O)[C@H](NC(=O)[C@@H]1CSSC[C@H](NC(=O)[C@@H](N)Cc2ccc(O)cc2)C(=O)N(C)[C@@H](Cc2ccccc2)C(=O)N[C@H](Cc2c[nH]c3ccccc23)C(=O)N[C@@H](CCCCN)C(=O)N[C@@H]([C@@H](C)O)C(=O)N1)C(N)=O [Example 12, Tyr-cyclo(Cys-NMePhe-DTrp-Lys-Thr-Cys)-Thr-NH2]	–	–	Kd (hSSTR-2): 40.1 ± 3.79 nM
C[C@@H](O)[C@H](NC(=O)[C@@H]1CSSC[C@H](NC(=O)[C@@H](N)Cc2ccc(O)cc2)C(=O)N[C@@H](Cc2ccccc2)C(=O)N(C)[C@H](Cc2c[nH]c3ccccc23)C(=O)N[C@@H](CCCCN)C(=O)N[C@@H]([C@@H](C)O)C(=O)N1)C(N)=O [Example 13, Tyr-cyclo(Cys-Phe-NMeDTrp-Lys-Thr-Cys)-Thr-NH2]	–	8 ± 0.9	–
